ChEMBL document CHEMBL3875167, “Design and synthesis of chiral 2H-chromene-N-imidazolo-amino acid conjugates as aldose reductase inhibitors” (Eur J Med Chem, 2016)

Target: Aldo-keto reductase family 1 member B1 (Rattus norvegicus, UniProt P07943)
Assay: Inhibition of rat lenses ALR2 using DL-glyceraldehyde as substrate preincubated for 10 mins followed by substrate addition measured for 4 mins
How it was run: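 ALR2 assay run at 30 °C in 1 mL containing 0.10 mM NADPH, 0.1 M sodium phosphate pH 6.2 and enzyme extract. The mixture was preincubated 10 min, then 10 mM DL-glyceraldehyde was added and NADPH oxidation followed for 4 min. Compounds were in DMSO diluted with water. Substrate-free blank rates were subtracted. Three replicates per concentration, with ≥3 concentrations giving 20–80% inhibition.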

IC50: 430 nM
SMILES: O=C1NC(=O)[C@@]2(CCOc3ccc(F)cc32)N1 [SORBINIL]
